Results from US20060234955A1, “Cardiac glycosides to treat cystic fibrosis and other il-8 dependent disorders” (priority 2002, published 2006).

System: IL-8 secretion from cystic fibrosis epithelial cell line IB-3
Details: IB-3 cells, 48 hour incubation, FIG. 3

C[C@@H]1O[C@@H](O[C@H]2C[C@@H](O)[C@]3(CO)[C@H]4[C@H](O)C[C@]5(C)[C@@H](C6=CC(=O)OC6)CC[C@]5(O)[C@@H]4CC[C@]3(O)C2)[C@H](O)[C@H](O)[C@H]1O [Compound IV, ouabain, reference compound]
ID50 (dose for 50% inhibition) for spontaneous IL-8 secretion: 8 nM

CO[C@H]1C[C@H](O[C@H]2CC[C@@]3(C)[C@H](CC[C@@H]4[C@@H]3CC[C@]3(C)[C@@H](C5=CC(=O)OC5)[C@@H](OC(C)=O)C[C@]43O)C2)O[C@@H](C)[C@@H]1O [Compound I]
ID50 (dose for 50% inhibition) for spontaneous IL-8 secretion: approximately 1 nM
